# Reference: ChEMBL document CHEMBL4024713, “Novel aryl piperazines for alleviation of 'andropause' associated prostatic disorders and depression” (Eur J Med Chem, 2017)
# Target: T1, Alpha-1A adrenergic receptor (Homo sapiens) (UniProt P35348)
# T1 sequence (whole entry): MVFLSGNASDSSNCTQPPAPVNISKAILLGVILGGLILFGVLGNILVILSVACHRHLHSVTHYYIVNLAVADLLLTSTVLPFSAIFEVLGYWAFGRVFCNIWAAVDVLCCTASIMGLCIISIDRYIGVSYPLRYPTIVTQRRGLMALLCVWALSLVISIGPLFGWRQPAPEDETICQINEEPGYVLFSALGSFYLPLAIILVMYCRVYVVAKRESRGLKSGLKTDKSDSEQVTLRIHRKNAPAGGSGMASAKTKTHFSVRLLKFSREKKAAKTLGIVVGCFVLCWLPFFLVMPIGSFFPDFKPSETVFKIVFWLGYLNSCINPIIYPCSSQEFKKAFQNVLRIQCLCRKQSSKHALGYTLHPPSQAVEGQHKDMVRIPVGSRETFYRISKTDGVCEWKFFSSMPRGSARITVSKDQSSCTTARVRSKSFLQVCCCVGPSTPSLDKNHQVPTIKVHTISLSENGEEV
# Experiment: Antagonist activity at recombinant human alpha1a adrenergic receptor expressed in human Chem1 cell membrane assessed as reduction in ephinephrine-induced calcium mobilization at 1 uM by fluoforte dye based fluorescence assay relative to ephinephrine
# Assay type: functional
# In short: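 α1A-adrenergic receptor-expressing Chem-1 cells, 4 x 10^4/well overnight, loaded with FluoForte calcium dye 45 min at 37 °C then 15 min at room temperature. Compounds at 1 μM; epinephrine 20 μM added at 10 s; tamsulosin 100 nM and 1 μM as reference. Fluorescence (ex 490/em 525 nm) read for 180 s as RFU.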
row,SMILES,fold change (FC)
1,c1ccc(N2CCN(CCCN3CCN(c4ccccn4)CC3)CC2)nc1,1.6
2,Fc1ccccc1N1CCN(CCCN2CCN(c3ccccc3F)CC2)CC1,1.5
3,O=[N+]([O-])c1cc(C(F)(F)F)ccc1N1CCN(CCCN2CCN(c3ccc(C(F)(F)F)cc3[N+](=O)[O-])CC2)CC1,1.6
4,O=[N+]([O-])c1ccc(N2CCN(CCCN3CCN(c4ccc([N+](=O)[O-])cc4)CC3)CC2)cc1,1.5
5,c1ccc(N2CCN(CCN3CCN(c4ccccn4)CC3)CC2)nc1,1.5
